# Laboratory results published in patent US9556187B2, “Substituted pyrrolo[3′,2′:5,6]pyrido[4,3-d]pyrimidines and JAK inhibitors comprising the same” (priority 2011, dated 2017).
# Amino acid sequences for entries named in this document (tags omitted). A change or cut given only in a name is not applied to a line headed by its entry.
# UniProt P23458: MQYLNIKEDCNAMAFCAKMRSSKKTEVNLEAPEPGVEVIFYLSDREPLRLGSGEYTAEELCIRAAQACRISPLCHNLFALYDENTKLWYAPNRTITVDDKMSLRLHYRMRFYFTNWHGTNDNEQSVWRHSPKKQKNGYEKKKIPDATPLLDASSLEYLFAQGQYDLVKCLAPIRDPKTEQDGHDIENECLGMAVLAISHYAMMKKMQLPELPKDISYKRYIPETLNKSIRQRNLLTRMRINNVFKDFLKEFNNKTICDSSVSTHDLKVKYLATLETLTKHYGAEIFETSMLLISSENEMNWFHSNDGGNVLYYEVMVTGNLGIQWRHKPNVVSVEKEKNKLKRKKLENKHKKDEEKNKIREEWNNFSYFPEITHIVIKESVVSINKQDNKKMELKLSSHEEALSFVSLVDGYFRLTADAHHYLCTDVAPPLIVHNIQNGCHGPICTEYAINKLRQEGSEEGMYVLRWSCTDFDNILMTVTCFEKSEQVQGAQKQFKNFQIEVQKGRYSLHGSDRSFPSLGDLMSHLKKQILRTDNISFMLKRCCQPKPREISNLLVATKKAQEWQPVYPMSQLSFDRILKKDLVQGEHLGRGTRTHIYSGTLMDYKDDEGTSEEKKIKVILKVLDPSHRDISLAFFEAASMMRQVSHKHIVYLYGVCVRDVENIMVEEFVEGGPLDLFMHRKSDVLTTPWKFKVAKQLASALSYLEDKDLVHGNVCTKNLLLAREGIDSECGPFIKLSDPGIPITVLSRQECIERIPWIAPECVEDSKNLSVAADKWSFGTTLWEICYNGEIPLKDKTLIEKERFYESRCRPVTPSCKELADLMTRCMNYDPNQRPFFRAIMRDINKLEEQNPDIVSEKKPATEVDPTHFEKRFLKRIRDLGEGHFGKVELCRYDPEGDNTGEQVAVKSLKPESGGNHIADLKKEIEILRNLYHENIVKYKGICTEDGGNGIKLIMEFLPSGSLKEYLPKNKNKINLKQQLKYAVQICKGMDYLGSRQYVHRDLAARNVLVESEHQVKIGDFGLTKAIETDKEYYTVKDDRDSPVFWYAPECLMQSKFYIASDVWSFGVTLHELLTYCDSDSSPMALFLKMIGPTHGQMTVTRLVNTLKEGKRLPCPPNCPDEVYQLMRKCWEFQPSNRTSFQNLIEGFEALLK
# Assays:
# Assay type in all cases: biochemical
# Conditions in all cases: ATP 100 μM
# JAK1 [1] = target: T1, JAK1 (Homo sapiens (Human), UniProt P23458); experiment: Enzyme assay (LANCE Ultra ULight-JAK1 Peptide), JAK1
# JAK2 = JAK2 (Homo sapiens (Human), UniProt O60674); experiment: Enzyme assay (LANCE Ultra ULight-JAK1 Peptide), JAK2
# JAK1 [2] = target: T1, JAK1; experiment: Enzyme assay, JAK1 (Assay Example^b 1)
smiles,measurement,setting,value
O=C(OCc1ccccc1)N1CCC(c2nnn3cnc4[nH]ccc4c23)CC1 [Ex 84],IC50,JAK1 [1],0.018 µM
same,IC50,JAK2,0.089 µM
same,IC50,JAK1 [2],0.00075 µM
